# Measurements from the Kinase Knowledgebase extract (Sharma et al. 2016).
# Chains of the proteins cited; added tags and fusions are not shown. Lines headed by an entry give the natural chain unless they say otherwise; changes in a name come on top.
# UniProt P42338: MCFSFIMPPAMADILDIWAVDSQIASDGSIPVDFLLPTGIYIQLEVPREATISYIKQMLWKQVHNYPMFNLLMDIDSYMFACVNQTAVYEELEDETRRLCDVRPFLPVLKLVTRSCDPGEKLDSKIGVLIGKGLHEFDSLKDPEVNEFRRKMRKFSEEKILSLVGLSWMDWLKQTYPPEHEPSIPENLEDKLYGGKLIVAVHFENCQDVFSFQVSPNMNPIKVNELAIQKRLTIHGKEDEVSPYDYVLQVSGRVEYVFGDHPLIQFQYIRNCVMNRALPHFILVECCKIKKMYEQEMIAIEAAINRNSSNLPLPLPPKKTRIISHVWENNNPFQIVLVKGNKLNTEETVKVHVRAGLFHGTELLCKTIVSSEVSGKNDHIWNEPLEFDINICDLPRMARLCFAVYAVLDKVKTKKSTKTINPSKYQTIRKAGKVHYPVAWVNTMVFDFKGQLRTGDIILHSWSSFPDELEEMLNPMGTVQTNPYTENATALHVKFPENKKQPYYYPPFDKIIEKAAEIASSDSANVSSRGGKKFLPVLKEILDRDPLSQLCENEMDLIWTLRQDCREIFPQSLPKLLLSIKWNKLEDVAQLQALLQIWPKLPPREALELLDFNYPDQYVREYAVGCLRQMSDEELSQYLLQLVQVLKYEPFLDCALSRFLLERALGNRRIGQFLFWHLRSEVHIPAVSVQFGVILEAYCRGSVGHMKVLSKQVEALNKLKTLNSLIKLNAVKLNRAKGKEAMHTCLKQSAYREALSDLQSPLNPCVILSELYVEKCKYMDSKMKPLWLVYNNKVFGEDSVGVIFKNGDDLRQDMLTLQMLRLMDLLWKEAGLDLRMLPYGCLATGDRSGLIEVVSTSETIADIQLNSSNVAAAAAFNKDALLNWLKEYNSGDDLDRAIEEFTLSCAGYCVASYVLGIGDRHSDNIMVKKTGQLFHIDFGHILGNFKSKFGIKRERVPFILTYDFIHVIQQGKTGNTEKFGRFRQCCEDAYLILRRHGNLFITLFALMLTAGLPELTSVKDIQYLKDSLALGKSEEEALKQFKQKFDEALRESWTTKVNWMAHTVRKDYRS
# Biological target: PIK3CB (Human) (UniProt P42338)
# Assay: Enzyme Assay
smiles,measurement,value
Cc1cc(C(C)Nc2ccccc2)c2nc(N3CCOCC3)cc(=O)n2c1 (stereo unspecified),IC50,52 nM
